From patent US20020187514A1 (priority 1999, published 2002) come the findings set out here.

Amino acid sequences for entries named in this document (tags omitted). Residues count along the entry.
UniProt H0WCX4, 1-619: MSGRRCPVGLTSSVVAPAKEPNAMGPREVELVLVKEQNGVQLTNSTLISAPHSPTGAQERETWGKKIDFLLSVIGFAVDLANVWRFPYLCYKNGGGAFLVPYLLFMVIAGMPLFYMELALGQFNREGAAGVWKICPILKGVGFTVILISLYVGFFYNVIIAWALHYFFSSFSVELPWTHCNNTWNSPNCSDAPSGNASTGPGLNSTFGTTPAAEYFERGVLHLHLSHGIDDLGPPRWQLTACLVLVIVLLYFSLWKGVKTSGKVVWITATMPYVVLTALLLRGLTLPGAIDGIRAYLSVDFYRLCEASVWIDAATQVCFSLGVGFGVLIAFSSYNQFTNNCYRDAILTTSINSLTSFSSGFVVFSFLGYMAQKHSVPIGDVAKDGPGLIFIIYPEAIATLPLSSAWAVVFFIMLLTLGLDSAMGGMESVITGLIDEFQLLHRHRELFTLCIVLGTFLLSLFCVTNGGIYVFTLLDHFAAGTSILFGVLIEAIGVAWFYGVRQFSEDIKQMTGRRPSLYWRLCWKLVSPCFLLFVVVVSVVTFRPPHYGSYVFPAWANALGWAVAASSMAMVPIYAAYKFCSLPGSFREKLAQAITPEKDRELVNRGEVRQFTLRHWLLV
UniProt P30543, whole entry: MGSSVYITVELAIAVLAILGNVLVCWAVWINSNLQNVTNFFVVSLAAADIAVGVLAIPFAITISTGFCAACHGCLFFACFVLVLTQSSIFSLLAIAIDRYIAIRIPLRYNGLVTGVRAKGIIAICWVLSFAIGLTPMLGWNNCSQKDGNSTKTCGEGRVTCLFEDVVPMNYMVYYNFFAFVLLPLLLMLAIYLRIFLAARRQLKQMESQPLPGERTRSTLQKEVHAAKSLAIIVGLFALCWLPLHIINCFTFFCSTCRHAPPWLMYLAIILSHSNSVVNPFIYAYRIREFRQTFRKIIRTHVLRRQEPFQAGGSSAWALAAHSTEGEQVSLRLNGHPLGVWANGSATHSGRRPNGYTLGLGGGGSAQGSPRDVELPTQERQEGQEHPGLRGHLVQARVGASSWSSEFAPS
UniProt P08588, whole entry: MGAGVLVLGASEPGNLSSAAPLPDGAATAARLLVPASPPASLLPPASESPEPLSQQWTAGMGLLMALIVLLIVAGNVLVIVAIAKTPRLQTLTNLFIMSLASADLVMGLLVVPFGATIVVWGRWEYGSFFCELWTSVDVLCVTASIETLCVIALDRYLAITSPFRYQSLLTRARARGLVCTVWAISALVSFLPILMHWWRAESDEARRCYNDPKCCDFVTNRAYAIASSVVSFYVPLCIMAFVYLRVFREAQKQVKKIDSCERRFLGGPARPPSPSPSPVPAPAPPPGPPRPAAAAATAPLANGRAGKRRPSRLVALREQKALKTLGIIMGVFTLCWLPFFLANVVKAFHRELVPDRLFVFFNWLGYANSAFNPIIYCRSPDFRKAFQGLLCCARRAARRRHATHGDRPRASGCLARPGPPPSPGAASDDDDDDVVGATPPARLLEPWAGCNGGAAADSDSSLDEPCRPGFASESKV
UniProt P30536, whole entry: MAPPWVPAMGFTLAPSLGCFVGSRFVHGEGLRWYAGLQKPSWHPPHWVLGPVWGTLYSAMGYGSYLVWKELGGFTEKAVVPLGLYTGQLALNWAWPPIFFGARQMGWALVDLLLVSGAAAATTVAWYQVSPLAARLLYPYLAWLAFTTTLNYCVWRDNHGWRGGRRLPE
UniProt Q9WTR4, 1-597: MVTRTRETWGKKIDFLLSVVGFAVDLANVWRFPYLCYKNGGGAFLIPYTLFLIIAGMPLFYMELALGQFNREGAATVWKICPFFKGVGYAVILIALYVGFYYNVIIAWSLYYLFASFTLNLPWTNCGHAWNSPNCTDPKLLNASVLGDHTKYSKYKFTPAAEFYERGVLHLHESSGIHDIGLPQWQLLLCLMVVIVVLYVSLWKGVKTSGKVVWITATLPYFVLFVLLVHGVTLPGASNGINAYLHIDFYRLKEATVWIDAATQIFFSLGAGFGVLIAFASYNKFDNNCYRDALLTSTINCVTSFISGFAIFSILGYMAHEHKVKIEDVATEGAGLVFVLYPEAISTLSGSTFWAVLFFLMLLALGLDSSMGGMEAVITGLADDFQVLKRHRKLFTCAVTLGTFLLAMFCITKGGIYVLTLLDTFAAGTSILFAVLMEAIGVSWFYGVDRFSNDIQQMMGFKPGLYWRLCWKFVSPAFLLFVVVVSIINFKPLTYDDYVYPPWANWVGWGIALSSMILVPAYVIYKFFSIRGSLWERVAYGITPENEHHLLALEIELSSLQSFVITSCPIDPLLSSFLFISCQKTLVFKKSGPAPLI
UniProt P31652, whole entry: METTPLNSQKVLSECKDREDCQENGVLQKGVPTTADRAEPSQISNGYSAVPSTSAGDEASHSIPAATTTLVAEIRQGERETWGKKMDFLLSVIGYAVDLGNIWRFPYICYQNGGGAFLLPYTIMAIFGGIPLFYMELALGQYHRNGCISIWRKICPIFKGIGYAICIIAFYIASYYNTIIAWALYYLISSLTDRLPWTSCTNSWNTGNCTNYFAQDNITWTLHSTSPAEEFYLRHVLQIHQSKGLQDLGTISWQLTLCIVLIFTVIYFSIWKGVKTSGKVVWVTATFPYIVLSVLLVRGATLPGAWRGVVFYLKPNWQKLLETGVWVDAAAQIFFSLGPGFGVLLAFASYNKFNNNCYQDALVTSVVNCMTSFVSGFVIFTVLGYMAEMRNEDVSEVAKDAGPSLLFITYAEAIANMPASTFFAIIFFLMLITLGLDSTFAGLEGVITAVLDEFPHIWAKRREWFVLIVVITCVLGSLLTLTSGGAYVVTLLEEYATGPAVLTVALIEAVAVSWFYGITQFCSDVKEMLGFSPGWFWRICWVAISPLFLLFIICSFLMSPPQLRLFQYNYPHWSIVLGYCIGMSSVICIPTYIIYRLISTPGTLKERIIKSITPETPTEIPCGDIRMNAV

The target of experiment [1] is Dopamine Transporter (Cavia porcellus, UniProt H0WCX4). Put plainly: biochemical. The class given is binding, Guinea Pig.
The target in experiment [2] is Adenosine, A2 (UniProt P30543). Description: Adenosine, A2; [3H]CGS21680. Conditions: read-out: Ref Kj. The class given is binding.
Experiment [3] has as its target T1, Adrenergic, Beta 1 (Homo sapiens, UniProt P08588).
T1 construct: expressed in transfected cells
Put plainly: Adrenergic, Beta 1 (Human Recombinant); [125I]Iodocyanopindolol. The format is binding.

Experiment [4] concerns the target Benzodiazepine, peripheral (Homo sapiens, UniProt P30536). Description: biochemical. The class given is binding.
In experiment [5] the target is Norepinephrine Transporter (Rattus norvegicus, UniProt Q9WTR4). Put plainly: biochemical. The format is binding.
The target in experiment [6] is Serotonin Transporter (Rattus norvegicus, UniProt P31652). Put plainly: biochemical. The format is binding.

SMILES strings stand for the structures.

`Fc1ccc(C(OCCN2CCN(CCCc3ccccc3)CC2)c2ccc(F)cc2)cc1`: in experiment [1], the Ki amounted to 13.2 nM.

`Nc1nc(Cl)nc2c1ncn2[C@@H]1O[C@H](CO)[C@@H](O)[C@H]1O` [2-Chloroadenosine (2-CADO), 2-Chloroadenosine]: in experiment [2], the Ki was 26.8 nM. Turning to `C=CCc1ccccc1OCC(O)CNC(C)C` (stereo not shown) [Alprenolol], the Ki in experiment [3] turned out to be 1.04 nM.

In experiment [4], `CCC(C)N(C)C(=O)c1cc2ccccc2c(-c2ccccc2Cl)n1` (stereo not shown) [PK 11195] showed a Ki of 1.84 nM.

Take `CNCCC(Oc1ccccc1OC)c1ccccc1` (stereo not shown) [[^3H]-Nisoxetine]: the Kd (as a rule, the constant that tells how readily two partners part at equilibrium) in experiment [5] was 0.9 nM.

Take `COC(=O)[C@H]1[C@@H](OC(=O)c2ccccc2)C[C@@H]2CC[C@H]1N2C` [cocaine]: the values for the Ki in experiment [5] and in experiment [6] were 1000 nM and 352 nM, respectively.
